Assay results from US9107893B2, “Methods, pharmaceutical compositions and kits for use in the treatment of adult T-cell leukemia/lymphoma” (Institut National de la Sante et de la Recherche Medicale …, priority 2009, dated 2015).

Legend:
Tax-driven murine ATL [1] = assay: ATL transplantation model (Tax transgenic spleen cells into SCID mice): survival and cure; assay type: in vivo, mouse; conditions: mice treated from days 6 to 30, continuous; arsenic 5 μg/g/day ip, IFN 10^6 IU/day sc
Description: (§1) We used the ATL mouse model of Hasegawa (Hasegawa et al., 2006). To test the effect of different targeted therapies, we established a rapid and reproducible model of disease by direct intra-peritoneal transfer of 10^6 spleen cells from Tax transgenic mice into SCID mice (Charles River, USA). Expression of Tax was only detectable at very low levels by Q-PCR. All murine protocols were approved by the Institutional Animal Care and Utilization Committee (IACUC) of the American University of Beirut. All animals were housed in specific pathogen-free housing. Animals were sacrificed by cervical dislocation following deep anesthesia with isoflurane.
Arsenic trioxide was obtained from Sigma-Aldrich (St Louis, Mo., USA) and recombinant human interferon-alpha (IFN) (Roferon®) from Hoffman-La Roche (Basel, Switzerland). The proteasome inhibitor PS341 or bortezomib (Velcade®) was purchased from Millenium Pharmaceuticals. For in vivo experiments, mice received arsenic (5 μg/g/day) intraperitoneally, IFN (10^6 IU/day) subcutaneously, bortezomib (0.5 mg/Kg/day) through mini-osmotic pumps (Alzet, Charles river). […] None of the different individual or combination treatment regimen was toxic in normal SCID mice (100% survival for more than 3 months; n=3 for each condition). […]
Survival curves were calculated according to the method of Kaplan and Meier. […]

Tax-driven murine ATL [2] = assay: Histopathological and laboratory examination of treated murine ATLs; assay type: in vivo, mouse; conditions: 6 days of treatment
Description: as §1, with “isoflurane. […]” for “isoflurane.”
Tissues from both treated and untreated mice were fixed in neutral buffer formalin (Sigma), then embedded in paraffin, sectioned, stained with hematoxylin and cosin (H&E), and examined by light microscopy. Ki-67 expression was assessed by immuno-histochemistry using rat anti-mouse monoclonal antibody Ki-67, clone TEC-3. […] White blood cell (WBC) counts, serum calcium and serum lactate dehydrogenase levels were determined using routine clinical laboratory techniques. […]
Splenocytes were harvested, filtered, washed twice with cold PBS, fixed in 100% ethanol at −20° C. and kept overnight at −20° C. […] The distribution of cell cycle phases with different DNA contents was determined using a FACScan flow cytometer (Becton Dickinson). […]

IFNα: recombinant human interferon-alpha (Roferon) from Hoffman-La Roche
survival benefit (Tax-driven murine ATL [1]): significant survival advantage | spleen weight (Tax-driven murine ATL [2]): significant spleen weight reduction
